The entries are a selection whose mix differs from that of the whole data set. Records with an inconclusive call do not appear. Activity calls are given as the source filed them. Calls follow the shape of the dose curve; as a rule, active = well fitted inhibition curve with a large enough effect in the signal ratio, with a control signal flat (not every such curve was filed as active); inconclusive = small, poorly fitted or top-dose-only effect, or effect the other way, or a change in a side signal; inactive = flat fitted curve, though single readings scatter; the % refers to the signal ratio.
Assay: qHTS Assay for Modulators of Lamin A Splicing
Details: HeLa LMNA splicing GFP/RFP minigene ratio, 48 h; at 46.1 µM (top of the series) unless noted
% is scaled to controls: 0 for no effect and ±100 for the full control effect.

Compound | ratio change, negative = inhibition
O=[N+]([O-])OCC(CO[N+](=O)[O-])(CO[N+](=O)[O-])CO[N+](=O)[O-] | inactive: 2.79%
CC1=NCCc2c1[nH]c1ccccc21.O=[N+]([O-])c1cc([N+](=O)[O-])c(O)c([N+](=O)[O-])c1 | inactive: -28.4%
Cc1cc(C)cc(OP(C)(=O)Nc2ccccn2)c1 (stereo unspecified) | inactive: 9.77%
CP(=O)(Nc1cccc(Br)c1)Oc1ccccc1 (stereo unspecified) | inactive: -21.6% [at 46 µM]
Cc1ccc(C)c(NP(C)(=O)Oc2ccccc2)c1 (stereo unspecified) | inactive: 2.93%
Cc1cc(C)cc(OP(C)(=O)Nc2ccc(C)cc2C)c1 (stereo unspecified) | inactive: -8.22%
Cc1nc2ccc3ccccc3c2s1.O=[N+]([O-])c1cc([N+](=O)[O-])c(O)c([N+](=O)[O-])c1 | inactive: 16.8%
O=[N+]([O-])c1cc([N+](=O)[O-])c(-n2nnc3ccccc32)c([N+](=O)[O-])c1 | inactive: 1.14% [at 46 µM]
CN1CCCCC1COC(=O)C1(O)c2ccccc2CCc2ccccc21 (stereo unspecified) | inactive: -10.3%
COc1ccccc1OP(C)(=O)Nc1c(C)cccc1C (stereo unspecified) | inactive: -5.02%
CCCOc1ccc(NP(C)(=O)Oc2ccc(Cl)cc2)cc1 (stereo unspecified) | inactive: -6.45% [at 46 µM]
CP(=S)(Nn1cnnc1)Oc1ccccc1 (stereo unspecified) | inactive: 8.23%
COc1ccccc1OP(C)(=O)Nc1ccccc1 (stereo unspecified) | inactive: -0.146% [at 46 µM]
CP(=O)(Nc1ccccc1Br)Oc1ccccc1 (stereo unspecified) | inactive: 4.07%
CCOP(C)(=S)SCC(=O)NC(C)C(=O)O (stereo unspecified) | inactive: 4.91%
CCOC(=O)c1ccc(NP(C)(=O)Oc2ccc(OC)cc2)cc1 (stereo unspecified) | inactive: -12.5%
CP(=O)(Nc1ccccn1)Oc1ccc(Cl)cc1 (stereo unspecified) | inactive: -0.963%
CP(=O)(Oc1ccccc1)OC(c1ccccc1)C(F)(F)F (stereo unspecified) | inactive: 22.2% [at 46 µM]
Cc1cc(C)cc(OP(C)(=O)Nc2ccc(SC(F)(F)F)cc2)c1 (stereo unspecified) | inactive: -9.43%

Compound | ratio change, negative = inhibition
CP(=O)(NC(=O)Nc1ccccc1)Oc1ccccc1 (stereo unspecified) | inactive: 6.11%
O=[N+]([O-])[O-].[NH4+] | inactive: -22%
CCN(CC)CCCOC(=O)C(O)(c1ccccc1)c1ccccc1 | inactive: 1.66% [at 9.22 µM]
Cc1ccc(NP(C)(=O)Oc2ccccc2)c(C)c1 (stereo unspecified) | inactive: 9.64%
COc1ccccc1OP(C)(=O)Nc1ccc(C)cc1 (stereo unspecified) | inactive: -7.06%
COc1ccc(OP(C)(=O)Nc2cccc(F)c2)cc1 (stereo unspecified) | inactive: -0.919%
Cc1cc(C)cc(OP(C)(N)=O)c1 (stereo unspecified) | inactive: 7.68% [at 46 µM]
Cc1cccc(C)c1OP(C)(N)=O (stereo unspecified) | inactive: 9.75% [at 46 µM]
Cc1nc2ccc3ccccc3c2o1.O=[N+]([O-])c1cc([N+](=O)[O-])c(O)c([N+](=O)[O-])c1 | inactive: 15.5%
CP(=O)(OCCOc1ccccc1)OCCOc1ccccc1 | inactive: -5.2% [at 46 µM]
COc1ccc(OP(C)(=O)Nc2ccccc2Br)cc1 (stereo unspecified) | inactive: -12%
COc1ccccc1OP(C)(=O)Nc1ccc(C)c(C)c1 (stereo unspecified) | inactive: 3.43%
Cc1c(NP(C)(=O)Oc2ccc(C(C)C)cc2)c(=O)n(-c2ccccc2)n1C (stereo unspecified) | inactive: 5.32%
CCc1ccc(OP(C)(=O)O)cc1 | inactive: 10.5%
COc1ccccc1OP(C)(=O)Nc1ccc(C)cc1C (stereo unspecified) | inactive: 8.96%
CP(=O)(Nc1ccccn1)Oc1ccccc1 (stereo unspecified) | inactive: -1.52%
CN(C)CCOC(=O)C(O)(c1ccccc1)C1CCCC1 (stereo unspecified) | inactive: -3.94%
COc1ccc(OP(C)(=O)Nc2ccccn2)cc1 (stereo unspecified) | inactive: 5.76%
CP(=O)(Nc1ccc(Cl)cc1)Oc1ccc(F)cc1 (stereo unspecified) | inactive: 0.719%

Compound | ratio change, negative = inhibition
CC(C)(C)c1ccc(OP(C)(=O)O)cc1 | inactive: 5.65%
CCN(CC)CC(O)COC(=O)C(O)(c1ccccc1)C1CCCCC1 (stereo unspecified) | inactive: -0.83%
CCc1ccc(OP(C)(=O)Nc2cccnc2)cc1 (stereo unspecified) | inactive: -4.13% [at 46 µM]
CP(=O)(Oc1ccccc1)N1CCOC1=O (stereo unspecified) | inactive: 6.18%
COc1ccccc1OP(C)(=O)Nc1c(C)n(C)n(-c2ccccc2)c1=O (stereo unspecified) | inactive: 6.05%
CP(=O)(OC12CC3CC(CC(C3)C1)C2)OC12CC3CC(CC(C3)C1)C2 | inactive: 14.6%
CCOC(=O)c1ccc(NP(C)(=O)Oc2ccc(Cl)cc2)cc1 (stereo unspecified) | inactive: 3.78%
COc1ccc(OP(C)(=O)Nc2cccc(Br)c2)cc1 (stereo unspecified) | inactive: -5.92%
CN(C)CCOC(=O)C(O)(c1ccccc1)C1CCCCC1 (stereo unspecified) | inactive: -1.08%
CP(=O)(Nc1ccc2c(c1)OCCO2)Oc1ccccc1 (stereo unspecified) | inactive: -8.22%
Cc1ccccc1NP(C)(=O)Nc1ccccc1C | inactive: -2.01%
CCN(CCCl)Cc1ccccc1C | inactive: -23.1%
CCOP(C)(=S)SCC(=O)NC(C)(CC)C(=O)O (stereo unspecified) | inactive: -8.05%
O=C(OCCN1CCN(CCOCc2ccccc2)CC1)C(O)(c1ccccc1)c1ccccc1 | inactive: 8.3%
CP(=O)(Nc1ccccc1F)Oc1ccccc1 (stereo unspecified) | inactive: 5.92%
CCN(CC)CCCOC(=O)C(O)(c1ccccc1)C1CCCCC1 (stereo unspecified) | inactive: 2.01%
CP(=O)(Nc1ccccc1)Oc1ccc(F)cc1 (stereo unspecified) | inactive: -6.3%
CCOC(=O)c1ccc(NP(C)(=O)Oc2ccc(F)cc2)cc1 (stereo unspecified) | inactive: 0.446%

Reference: PubChem BioAssay AID1487 (National Center for Advancing Translational Sciences (NCATS), 2009)
